# Experimental data from PubChem BioAssay AID588850 (Sanford-Burnham Center for Chemical Genomics, 2011).
# Only a part is listed here, and it is no random draw. Calls of active or inactive are those of the source.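 How the source made its calls: active means at least 50% inhibition at 5 µM, scaled per plate between neutral and stimulator controls; inactive means the rest.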
# Assay: inhibitors of PAF-induced NF-kB signaling, primary screen, cell-based, GFP fluorescence, uHTS (AID 588850);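 further: PAF is a Pseudomonas aeruginosa culture filtrate used as stimulus; plate controls were PAF-stimulated DMSO wells for no effect and unstimulated DMSO wells for full effect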
# Details: KKLEB NF-kB-GFP reporter, GFP fluorescence overnight, at 5 µM, stronger effect = higher value
row,SMILES,inhibition
1,CCCCn1nnnc1C(CC)N1CCC(n2c(=O)[nH]c3ccccc32)CC1 (stereo not given),inactive: -2.7%
2,O=C(NCC1(N2CCCCC2)CCCCC1)c1cccs1,inactive: 4.4%
3,O=C(NCC1(N2CCCCC2)CCCCC1)c1ccc(=O)[nH]c1,inactive: -18.8%
4,CCC(c1nnnn1C1CCCC1)N1CCC(n2c(=O)[nH]c3ccccc32)CC1 (stereo not given),inactive: -9.2%
5,COc1ccc(C(=O)NCC2(N3CCCCC3)CCCCC2)c(OC)c1OC,inactive: -0.8%
6,CC(C)(C)OC(=O)N1CCC(N(C(=O)c2ccccc2)c2ccc(F)cc2)CC1,inactive: 3.2%
7,COc1ccc(C(=O)NCC2(N3CCCCC3)CCCCC2)cc1,inactive: -4.2%
8,CCCCn1nnnc1C(c1ccc(OC)cc1)N1CCC(n2c(=O)[nH]c3ccccc32)CC1 (stereo not given),inactive: -7.7%
9,CCOC(=O)N1CCC(Nc2ccc(OC)cc2)CC1,inactive: -3.3%
10,COc1ccc(Cl)cc1C(=O)NCC1(N2CCOCC2)CCCCC1,inactive: 1.1%
11,O=c1[nH]c2ccccc2n1C1CCN(C(c2cc3ccccc3o2)c2nnnn2C2CCCCC2)CC1 (stereo not given),inactive: 21.7%
12,O=C(OC1CN2CCC1CC2)C1c2ccccc2Oc2ccccc21 (stereo not given),inactive: -10%
13,N#CC1(Nc2ccccc2)CCN(Cc2ccccc2)CC1,inactive: -16.7%
14,O=C(NCC1(N2CCCCC2)CCCCC1)c1ccc(Cl)s1,inactive: -4.1%
15,O=C(NCC1(N2CCOCC2)CCCCC1)c1cc2ccccc2o1,inactive: 0.3%
16,Cc1cc(C)cc(N(C(=O)c2ccccc2)C2CCN(C(=O)OC(C)(C)C)CC2)c1,inactive: 6.9%
17,O=c1[nH]c2ccccc2n1C1CCN(C(c2ccccc2OC(F)(F)F)c2nnnn2C2CCCCC2)CC1 (stereo not given),inactive: 0.1%
18,O=C(NCC1(N2CCCCC2)CCCCC1)c1ccc(Cl)nc1,inactive: 14.6%
19,CCCCn1nnnc1C(c1ccnc2ccccc12)N1CCC(n2c(=O)[nH]c3ccccc32)CC1 (stereo not given),inactive: -10.9%
20,O=C(NCC1(N2CCOCC2)CCCCC1)c1cc(F)c(F)cc1Cl,inactive: 5.5%
21,CCC(c1nnnn1C(C)(C)C)N1CCC(n2c(=O)[nH]c3ccccc32)CC1 (stereo not given),inactive: 15.7%
22,COc1cc(OC)c(C(=O)NCC2(N(C)C)CCCCC2)cc1OC,inactive: 3.3%
23,CN(C)c1cccc(C(=O)NCC2(N3CCCCC3)CCCCC2)c1,inactive: 7.7%

row,SMILES,inhibition
1,COc1ccc(CN(CCCl)CCCl)cc1Cl,inactive: 1.6%
2,CC(C)c1ccc(NC2CCN(C(=O)OC(C)(C)C)CC2)cc1,inactive: 13.2%
3,CCCCn1nnnc1C(c1ccccc1OC(F)(F)F)N1CCC(n2c(=O)[nH]c3ccccc32)CC1 (stereo not given),inactive: 23.7%
4,CCCOc1ccc(C(=O)NCC2(N(C)C)CCCCC2)cc1OC,inactive: 21.7%
5,Cc1ccc(C(=O)NCC2(N(C)C)CCCCC2)o1,inactive: 12.2%
6,COc1ccc(C(c2nnnn2C2CCCC2)N2CCC(n3c(=O)[nH]c4ccccc43)CC2)cc1 (stereo not given),inactive: -31.7%
7,O=C(NCC1(N2CCCCC2)CCCCC1)c1cncc(Br)c1,inactive: 9.5%
8,CN1CCC(Nc2cccc(F)c2)CC1,inactive: 9.4%
9,CSc1ccc(C(=O)NCC2(N3CCOCC3)CCCCC2)cc1,inactive: -22.8%
10,O=C(NCC1(N2CCCCC2)CCCCC1)c1cccc([N+](=O)[O-])c1,inactive: -6%
11,N#CC1(Nc2ccccc2)CCN(CCc2ccccc2)CC1,inactive: -3.7%
12,O=c1[nH]c2ccccc2n1C1CCN(C(c2ccccc2OC(F)(F)F)c2nnnn2C2CCCC2)CC1 (stereo not given),inactive: 7.8%
13,CCN1CCC(Nc2ccc(Cl)cc2)CC1,inactive: 14.4%
14,O=C(NCC1(N2CCCCC2)CCCCC1)c1ccc(OC(F)F)cc1,inactive: 0.6%
15,CC(C)(C)n1nnnc1C(c1ccccc1OC(F)(F)F)N1CCC(n2c(=O)[nH]c3ccccc32)CC1 (stereo not given),inactive: 20.4%
16,CCCCn1nnnc1C(c1cccc2ccccc12)N1CCC(n2c(=O)[nH]c3ccccc32)CC1 (stereo not given),inactive: -9.7%
17,COc1ccc(NC2CCN(C(=O)OC(C)(C)C)CC2)cc1,inactive: 0.7%
18,CC(C)c1ccc(C(=O)NCC2(N3CCOCC3)CCCCC2)cc1,inactive: 13.7%
19,CN1CCN(CCOC(=O)C(O)(c2ccccc2)c2ccccc2)CC1,inactive: 1.5%
20,O=C(NCC1(N2CCOCC2)CCCCC1)c1cc(=O)[nH]c2ccccc12,inactive: -5.2%
21,COc1cc(C(=O)NCC2(N3CCCCC3)CCCCC2)ccc1OC(F)F,inactive: -15.5%
22,O=C(NCC1(N2CCCCC2)CCCCC1)c1cccc(C(F)(F)F)c1,inactive: -4.5%
